Values quoted from earlier work in US20260166031A1, “Methods of Treating Lipedema and Lymphatic Disease of the Subcutaneous Tissue” (Celltaxis, LLC, priority 2023, published 2026).

Test system: other metalloenzymes
Settings: Bhatt et al. (2017); cited from earlier work

For `O=C(O)c1ccc(CN2C[C@@H]3C[C@H]2CN3Cc2ccc(Oc3ccc(-c4ncco4)cc3)cc2)cc1` [acebilustat, 4-{[(1S,4S)-5-({4-[4-oxazol-2-yl-phenoxy]phenyl}methyl)-2,5-diazabicyclo[2.2.1]heptan-2-yl]methyl}benzoic acid], the “selectivity for LTA4H versus other metalloenzymes” value is listed as “highly selective”.
